Laboratory results as given in ChEMBL document CHEMBL2177058 (J Med Chem, 2012).

By UniProt entry, the sequences of proteins in these tests, tags left out.
UniProt P35372, whole entry, looked up: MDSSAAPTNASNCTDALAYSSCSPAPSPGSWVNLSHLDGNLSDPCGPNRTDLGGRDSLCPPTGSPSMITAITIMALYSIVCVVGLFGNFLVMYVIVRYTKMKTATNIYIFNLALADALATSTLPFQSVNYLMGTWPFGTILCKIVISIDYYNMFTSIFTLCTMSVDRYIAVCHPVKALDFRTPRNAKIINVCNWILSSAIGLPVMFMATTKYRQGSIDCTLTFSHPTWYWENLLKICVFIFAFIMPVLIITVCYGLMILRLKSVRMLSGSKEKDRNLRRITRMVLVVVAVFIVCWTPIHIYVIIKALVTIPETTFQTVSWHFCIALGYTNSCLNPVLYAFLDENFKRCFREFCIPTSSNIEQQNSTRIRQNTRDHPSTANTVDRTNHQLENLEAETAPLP

Biological target: Mu-type opioid receptor (Homo sapiens, UniProt P35372)
Experiment: Displacement of [3H]DAMGO from human mu opioid receptor expressed in CHO cell membranes incubated for 60 mins by liquid scintillation counting

For CN(C(=O)Cc1ccc(Cl)c(Cl)c1)C1CCCCC1N1CCCC1 (stereo unspecified), the Ki was 290 nM.
